Earlier results on 1 substance are cited in patent US4448717A, “Pharmacologically active peptides” (Eli Lilly and Company, priority 1982, dated 1984).

For this series, the system named is mice. The conditions noted are these: cited from earlier work.

As to “H-Tyr-Gly-Gly-Phe-Leu-OH [leucine enkephalin]”, the “analgesic activity when administered parenterally” value is recorded as “practically devoid of any useful analgesic activity”.
